# Experimental data reported in patent US20140255402A1 (priority 2013, published 2014).
# Like-named read-outs stand apart in the source and are kept apart here.
# Test system: NALM/6 cells
compound,measurement,setting,value
"Nc1ccn([C@@H]2O[C@H](CO)[C@@H](O)[C@@H]2O)c(=O)n1 [Ara-C, Cytarabine]",Median survival time (MST),"experiment 1, concurrent schedule, low dose: Ara-C 100 mg/kg daily x6, Combotox 0.8 mg/kg anti-CD19-dgRTA plus 0.5 mg/kg anti-CD22-dgRTA daily x6, i.v., start day 12",19 days
same,Median survival time (MST),"experiment 2, sequential schedule, high dose: Ara-C 200 mg/kg daily x3 on days 7-9, Combotox 2.4 mg/kg anti-CD19-dgRTA plus 1.5 mg/kg anti-CD22-dgRTA on days 14, 16 and 18",20 days
